Results from patent US6399325B1, “DNA encoding a galanin receptor” (priority 1994, dated 2002).

What was measured:
mouse galanin receptor = target: T1, mouse galanin receptor (Mus musculus, UniProt P56479); assay: Competitive binding of porcine [125I] galanin to mouse galanin receptor (CHO membrane fractions)
T1 construct: expressed in transfected cells; host or cells: CHO dhfr- cells (CHO-MGR20)
T1 sequence (P56479 1-348): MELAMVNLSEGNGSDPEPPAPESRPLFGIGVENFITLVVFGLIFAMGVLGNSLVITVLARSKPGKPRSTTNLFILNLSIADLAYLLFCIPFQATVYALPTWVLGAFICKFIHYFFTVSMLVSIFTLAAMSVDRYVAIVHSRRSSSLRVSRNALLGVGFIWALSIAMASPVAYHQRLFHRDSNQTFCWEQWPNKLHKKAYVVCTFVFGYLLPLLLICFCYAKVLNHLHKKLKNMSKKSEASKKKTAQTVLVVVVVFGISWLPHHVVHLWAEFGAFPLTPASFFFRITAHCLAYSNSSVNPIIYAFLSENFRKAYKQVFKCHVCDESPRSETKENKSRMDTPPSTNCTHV

[1] = target: T2, galanin receptor (MIN6 cell membrane fractions) (Mus musculus, UniProt P56479); assay: Galanin receptor binding experiment using MIN6 cell membrane fractions; conditions: read-out: IC50 (concentration giving 50% of PMB), [125I] porcine galanin, 25° C. for 75 minutes
T2 construct: endogenous in cells; host or cells: MIN6 mouse pancreatic beta-cell line, membrane fraction
T2 sequence (P56479 1-348): T1 sequence (P56479 1-348)

Rat Galanin
Ki (mouse galanin receptor; inhibition of porcine [125I] galanin binding, CHO membrane fractions with mouse galanin receptor): 0.069 ± 0.002 nM | IC50 (mouse galanin receptor; porcine [125I] galanin 100 pM, membrane fractions 1 μg protein, 75 min at 25° C., mean±S.E.M.): 0.25 ± 0.01 nM | IC50 [1]: 0.13 nM
